{"source": "patent US20100098690A1", "about": "“PHARMACEUTICAL COMPOSITION” (KYOWA HAKKO KIRIN CO., LTD., priority 2007, published 2010)", "key": {"[1]": {"tested_on": "human breast cancer cell line (BT-474)", "experiment": "In vitro cell growth inhibition assay (WST-1) with isobologram analysis of combination effect", "format": "cell-based", "conditions": "combined with the test compound (hydrochloride of Compound 22), 72 hours, isobologram method", "description": "Measurement of the cell growth inhibition rate of the test compound and a combined compound on a human multiple myeloma cell line (NCI-H929), a human non-small-cell lung cancer cell line (PC-9), a human breast cancer cell line (BT-474), a human renal cancer cell line (VMRC-RCZ), a human chronic myeloid leukemia cell line (K-562) and a human acute myeloid leukemia cell line (MOLM-13) was carried out in the following manner. […]\nThe solutions of the test compound and the combined compound diluted with culture medium were added to the plates in an amount of 10 μL/well, respectively, followed by further incubation in a 5% CO2 incubator at 37° C. for 72 hours. […] The absorbance at 450 nm (control wavelength: 655 nm) was measured using a microplate spectrophotometer SPECTRA max 340PC (Molecular Devices). Separately, the solvent used for preparation of each compound solution alone was added to the wells, and the absorbance was measured in the same manner as above after 72-hour incubation carried out in the same manner as above and also immediately after the addition of the solvent. The cell growth inhibition rate on the cells in the compound-added groups (groups treated with the test compound alone, the combined compound alone, or both compounds) was calculated according to the following equation. […]"}, "[2]": {"tested_on": "human breast cancer KPL-4 cells", "experiment": "Antitumor effect in a mouse model transplanted with human breast cancer KPL-4 cells", "format": "in vivo, BALB/cAJcl-nu mice", "conditions": "day 10; test compound 100 mg/kg i.v. twice a day x 5 days; paclitaxel 25 mg/kg i.v. days 0 and 3; trastuzumab 50 mg/kg i.v. days 0, 3, 7, 10, 14 and 17"}}, "data": [{"substance": "trastuzumab", "values": [{"measurement": "Combination effect of test compound and each compound", "setting": "[1]", "value": "Envelope of additivity"}, {"measurement": "T/C (V/V0 of each group divided by V/V0 of the negative control group)", "setting": "[2]", "value": 0.96}]}]}
